Test results published in patent US6770442B2, “Methods for modulating the solubility of synthetic polymers” (Boston Probes, Inc., priority 1998, dated 2004).

Conditions: for solubility (concentration at which soluble / not soluble): stock PNA solution for labeling

| Substance | solubility (concentration at which soluble / not soluble) | solubility (at pH 8.5) |
| --- | --- | --- |
| H-OE-TTA-GGG-TTA-GGG-TTA-GGG-EE-NH2 | ≥ 0.05 OD/μL |  |
| H-OO-TTA-GGG-TTA-GGG-TTA-GGG-NH2 | < 0.05 OD/μL | extremely insoluble |
